Assay results reported in patent US20230391730A1, “INHIBITORS OF THE BROMODOMAIN PHD FINGER TRANSCRIPTION FACTOR (BPTF) AS ANTI-CANCER AGENTS” (Regents of the University of Minnesota, priority 2020, published 2023).

Assays:
BPTF bromodomain [1] = biological target: T1, BPTF bromodomain (Homo sapiens, UniProt Q12830); settings: reported; cited from earlier work
BPTF bromodomain [2] = biological target: T1, BPTF bromodomain; experiment: BPTF AlphaScreen competitive inhibition assay; format: binding; set-up: 30 nM for His9-tagged BPTF bromodomain and 50 nM for the biotinylated peptide were used; made in house

SMILES | IC50 (BPTF bromodomain [2]) [µM] | also measured
COC(=O)c1cccc(NC(=O)N[C@H]2CCN(c3ccnc(Nc4ccc(F)cc4)n3)C2)c1 [AU1, reference compound] | – | Kd (BPTF bromodomain [1]): 2.8 µM
Cn1ncc(N[C@@H]2CCNC2)c(Cl)c1=O [Compound 1] | 7.7 to 31 | –
Cn1ncc(N[C@H]2CCNC2)c(Cl)c1=O [Compound 2] | 7.7 to 31 | –
Cn1ncc(NC2CNC2)c(Cl)c1=O [Compound 4, 5-(azetidin-3-ylamino)-4-chloro-2-methylpyridazin-3(2H)-one] | – | IC50 (BPTF bromodomain [2]; read-out: BPTF AlphaScreen IC50): 7.7 to 31 µM

Read-outs that look alike come from different tables or passages of the source.
